Measurements published in ChEMBL document CHEMBL4627396 (J Med Chem, 2020).

Protein sequences, listed by entry. Tags and fused reporters are not part of them. Lines headed by an entry give the natural chain unless they say otherwise; changes in a name come on top.
UniProt O60331: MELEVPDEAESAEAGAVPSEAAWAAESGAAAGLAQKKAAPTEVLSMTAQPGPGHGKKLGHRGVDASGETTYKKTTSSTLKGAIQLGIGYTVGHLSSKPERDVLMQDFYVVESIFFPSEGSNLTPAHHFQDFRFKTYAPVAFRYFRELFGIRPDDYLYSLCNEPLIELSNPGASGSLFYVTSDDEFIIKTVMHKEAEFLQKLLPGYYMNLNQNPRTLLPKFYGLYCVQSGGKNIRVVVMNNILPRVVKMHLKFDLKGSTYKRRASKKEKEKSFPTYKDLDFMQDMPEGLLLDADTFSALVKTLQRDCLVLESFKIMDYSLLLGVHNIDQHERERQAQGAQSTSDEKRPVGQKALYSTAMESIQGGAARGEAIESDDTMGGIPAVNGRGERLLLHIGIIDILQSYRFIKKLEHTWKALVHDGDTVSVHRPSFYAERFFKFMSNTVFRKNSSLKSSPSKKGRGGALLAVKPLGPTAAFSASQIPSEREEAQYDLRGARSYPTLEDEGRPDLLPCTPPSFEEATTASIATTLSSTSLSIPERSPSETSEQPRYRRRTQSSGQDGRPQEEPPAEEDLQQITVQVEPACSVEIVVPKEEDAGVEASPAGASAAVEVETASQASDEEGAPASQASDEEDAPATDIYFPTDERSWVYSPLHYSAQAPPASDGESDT

Biological target: Phosphatidylinositol 4-phosphate 5-kinase type-1 gamma (Homo sapiens, UniProt O60331)
Assay: Binding affinity to wild-type human partial length PIP5K1C (M1 to T668 residues) expressed in mammalian expression system assessed as residual binding level at 1 uM by Kinomescan method relative to control

NC(=O)c1cnc(N2CCC[C@H](N)C2)nc1Nc1cccc(C(F)(F)F)c1
Activity: 8.1%
